The source of these data is US20070026067A1, “Liquid formulations for controlled delivery of benzisoxazole derivatives” (priority 2005, published 2007).

Each structure is given as a SMILES string.

The data set is described as follows: clinical. As to conditions: male, human, plasma, 2 mg.
Where [1] appears, read: other: colonic bolus into the transverse colon.
The mark [2] stands for this setting: other: colonic infusion into the transverse colon.

For `Cc1nc2n(c(=O)c1CCN1CCC(c3noc4cc(F)ccc34)CC1)CCCC2` [Risperidone], under setting [1], the AUC(0-inf) turned out to be 30.6 ng·h/mL, the AUC(0-t) stood at 29.7 ng·h/mL, the peak level (Cmax) was 7.31 ng/mL and the Tmax was 0.77 h. Under setting [1], this compound gave a bioavailability of 63.4% and a half-life of 3.32 h. Besides, under “other: colonic bolus into the transverse colon, Risperidone Relative Bioavailability, Treatment B: colonic bolus 2 mg over 10 minutes, relative to oral dosing”, the bioavailability is 63%. Besides, under setting [2], the AUC(0-inf) came out at 56.1 ng·h/mL, the AUC(0-t) turned out to be 53.1 ng·h/mL, the Cmax turned out to be 4.93 ng/mL and the Tmax was determined as 6.18 h. In addition, under setting [2], the half-life is 4.11 h. Further, the bioavailability (other: colonic infusion into the transverse colon, Risperidone Relative Bioavailability, Treatment A: colonic infusion 2 mg over 6 hours, relative to oral dosing) stood at 75%. Where the note is “po”, the AUC(0-inf) worked out at 59.7 ng·h/mL, the AUC(0-t) was determined as 58.7 ng·h/mL, the Cmax came to 16.2 ng/mL and the Tmax stood at 0.69 h. The compound also showed a half-life (po) of 3.31 h.

For orientation: AUC(0-inf) means the area under the concentration-time curve extrapolated to infinity. As usually defined, the AUC(0-t) is exposure summed from dosing to a finite time, without extrapolation to infinity. Higher therefore signals high exposure. By Cmax is commonly meant the maximum level reached in the sampled fluid or tissue. As usually defined, the Tmax is the time at which the peak concentration occurs. Usually bioavailability stands for dose-corrected exposure relative to a reference, in per cent. Read a high bioavailability as much systemic uptake. Usually half-life stands for the time in which the quantity being followed falls by half.
